Yeast mating assay 2: variants of the scFv Ab-91

Source: Engelhart et al. 2022 (doi:10.1038/s41597-022-01779-4), MIT Lincoln Laboratory and A-Alpha Bio; data file from the FLAb repository.

Target: peptide PDVDLGDISGINAS, taken from heptad repeat 2 (HR2) of SARS-CoV-2 spike.

Each scFv is VL, a 15-residue (Gly4Ser)3 linker, VH, as in the parent Ab-91, and differs from it in the CDRs of the heavy chain only.
VL: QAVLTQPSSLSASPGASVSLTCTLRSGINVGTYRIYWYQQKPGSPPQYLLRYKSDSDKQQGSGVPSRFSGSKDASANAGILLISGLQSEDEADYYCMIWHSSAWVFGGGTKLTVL
VH: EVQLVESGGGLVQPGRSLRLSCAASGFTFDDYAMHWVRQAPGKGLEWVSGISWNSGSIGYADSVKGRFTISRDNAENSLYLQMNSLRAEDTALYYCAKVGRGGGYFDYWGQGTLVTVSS

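The starting antibody came from a phage panning campaign against this peptide. Library AAYL51 holds single substitutions and randomly drawn double and triple substitutions in the CDRs. The scFvs were displayed on barcoded MATa yeast, the peptide on MATalpha yeast. The frequency of each diploid, read from paired DNA barcodes, reflects how well the two displayed proteins bind. A regression on co-assayed BCL2-family reference pairs converts the normalised counts of each replicate to an apparent Kd. There are three technical replicates.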

Changes read parent residue, position, new residue, counted from the first residue of the VH shown. Scale: log10 of Kd in nM, estimated from mating counts; low values are strong binders. A mean of the replicates is given; it leaves out those without a signal. Where no diploid with the target was found in that replicate, the entry reads "ND": below detection, most likely a poor binder, though not proof of it. Order: sorted from the lowest average up, undetected variants last.

changes,log10 Kd (nM) by replicate,"log10 Kd (nM), mean"
F27K T28H H35K,0.84 / 1.05 / 0.54,0.81
K65N G104Q Y108W,1.31 / 1.39 / 0.68,1.13
S52A W53I G103K,1.24 / 1.57 / 0.79,1.20
Y32D W53S I58R,ND / ND / 2.19,2.19
D62H S63R G103I,3.13 / 2.77 / 2.48,2.79
F27T D30A K65L,3.02 / 2.83 / 2.83,2.90
W53N V64C R101D,ND / ND / 3.44,3.44
S52T S63M,3.60 / 3.24 / 3.71,3.52
F29N I58W V64T,3.59 / ND / ND,3.59
F29V N54K G100R,3.73 / ND / ND,3.73
Y32M V64C,3.79 / 4.18 / 3.95,3.97
I58Q G59E,ND / ND / 4.13,4.13
G26Y S52C G102S,4.14 / ND / ND,4.14
W53N D62R S63Q,4.50 / 3.96 / ND,4.23
D31V D62K Y105R,ND / ND / 4.28,4.28
D30I S57K D62Q,4.27 / 4.34 / ND,4.31
G26R I51P G103K,4.26 / ND / 4.75,4.50
F29R S52L S63H,4.02 / 5.01 / ND,4.51
H35R S52P S55P,4.52 / ND / ND,4.52
D62A K65R G103R,4.56 / ND / 4.59,4.58
S57W S63M D107E,4.73 / ND / ND,4.73
G26F A33T M34L,5.18 / 4.74 / 4.56,4.83
S52F I58P A61W,ND / 4.90 / ND,4.90
N54K G56F G100L,5.50 / ND / 4.33,4.91
N54E D62Q G103E,ND / 4.99 / ND,4.99

The remaining entries, values ahead:

log10 Kd (nM) by replicate,"log10 Kd (nM), mean",changes
5.00 / ND / ND,5.00,Y32E A61N K65S
5.17 / 5.01 / ND,5.09,Y32M G56R G100Q
ND / 5.83 / 4.58,5.20,H35E G50A K65V
6.14 / 4.27 / ND,5.20,F29D D30Q S57T
6.16 / 5.28 / 4.49,5.31,M34T H35E D62Q
ND / 5.33 / ND,5.33,F29S S52H N54I
5.60 / ND / ND,5.60,T28H D31N Y32F
ND / 5.88 / ND,5.88,Y32T I58G G102I
ND / ND / ND,ND,G50I S63P V64I
ND / ND / ND,ND,D31A M34A I58Y
ND / ND / ND,ND,Y32Q S52P A61V
ND / ND / ND,ND,D30W I58P S63A
ND / ND / ND,ND,A33R A61C G103N
ND / ND / ND,ND,D31K Y32V
ND / ND / ND,ND,G50C S63K Y105E
ND / ND / ND,ND,M34D I58L
ND / ND / ND,ND,M34C G59P D107Y
ND / ND / ND,ND,G56W S57C V64P
ND / ND / ND,ND,A33W M34F S57V
ND / ND / ND,ND,G50M D62Q Y105L
ND / ND / ND,ND,M34Y Y60L Y105N
ND / ND / ND,ND,V99G G104W Y105N
ND / ND / ND,ND,A33Y G59L Y60E
ND / ND / ND,ND,H35Y D62A
ND / ND / ND,ND,F27I S52E S57G
ND / ND / ND,ND,F29Y G59D G102F

Repeated from above, the 3 best binders with a signal in all replicates:

{"changes": "F27K T28H H35K", "log10 Kd (nM) by replicate": "0.84 / 1.05 / 0.54", "log10 Kd (nM), mean": "0.81"}
{"changes": "K65N G104Q Y108W", "log10 Kd (nM) by replicate": "1.31 / 1.39 / 0.68", "log10 Kd (nM), mean": "1.13"}
{"changes": "S52A W53I G103K", "log10 Kd (nM) by replicate": "1.24 / 1.57 / 0.79", "log10 Kd (nM), mean": "1.20"}

As a blank, each scFv also met three strains without target: over library AAYL51, 21% of these pairings were detected, typically at 4.54 and seldom below 3.26.